ChEMBL document CHEMBL1140609, “Carbonic anhydrase inhibitors. Inhibition of transmembrane isozymes XII (cancer-associated) and XIV with anions” (Bioorg Med Chem Lett, 2007)

Protein sequences, listed by entry. Tags and fused reporters are not part of them. Residues count along the entry.
UniProt Q9ULX7, 16-337 limits assumed: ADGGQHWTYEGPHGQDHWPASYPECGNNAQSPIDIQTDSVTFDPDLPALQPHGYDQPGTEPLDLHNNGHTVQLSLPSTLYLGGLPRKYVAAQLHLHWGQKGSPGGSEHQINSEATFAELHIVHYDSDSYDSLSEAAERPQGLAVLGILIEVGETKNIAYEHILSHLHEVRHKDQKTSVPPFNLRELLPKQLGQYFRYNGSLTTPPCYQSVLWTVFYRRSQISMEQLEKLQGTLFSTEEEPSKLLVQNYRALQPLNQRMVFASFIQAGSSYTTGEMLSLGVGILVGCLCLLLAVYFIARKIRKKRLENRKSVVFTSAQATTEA

Assays:
Carbonic anhydrase 9 = Carbonic anhydrase 9 (Homo sapiens, UniProt Q16790); assay: Inhibition of human recombinant catalytic domain CA9
Carbonic anhydrase 14 = Carbonic anhydrase 14 (Homo sapiens, UniProt Q9ULX7); assay: Inhibition of human recombinant full length CA14

O=[As](O)(O)c1ccccc1
Ki (Carbonic anhydrase 9): 55 µM
Ki (Carbonic anhydrase 14): 84 µM
